According to BindingDB's records for doi:10.1021/jm00020a029 (Merck Research Laboratories, 1995):

Experiment: Evaluated for the activation of human thrombin receptor measured by platelet aggregation

- EC50: 35 µM
Compound: CC(C)C[C@H](NC(=O)[C@H](CC(C)C)NC(=O)[C@H](Cc1ccccc1)NC(=O)CCN)C(=O)N[C@@H](CCCNC(=N)N)C(N)=O [(S)-2-[(S)-2-(3-Amino-propionylamino)-3-phenyl-propionylamino]-4-methyl-pentanoic acid [(S)-1-((S)-1-carbamoyl-4-guanidino-butylcarbamoyl)-3-methyl-butyl]-amide]
